Laboratory results published in PMC10466050, “A comparative study of human and zebrafish glucocorticoid receptor activities of natural and pharmaceutical steroids” (Frontiers in Endocrinology, 2023).

Protein sequences, listed by entry. Tags and fused reporters are not part of them.
UniProt Q1XHK0, entry or part of it: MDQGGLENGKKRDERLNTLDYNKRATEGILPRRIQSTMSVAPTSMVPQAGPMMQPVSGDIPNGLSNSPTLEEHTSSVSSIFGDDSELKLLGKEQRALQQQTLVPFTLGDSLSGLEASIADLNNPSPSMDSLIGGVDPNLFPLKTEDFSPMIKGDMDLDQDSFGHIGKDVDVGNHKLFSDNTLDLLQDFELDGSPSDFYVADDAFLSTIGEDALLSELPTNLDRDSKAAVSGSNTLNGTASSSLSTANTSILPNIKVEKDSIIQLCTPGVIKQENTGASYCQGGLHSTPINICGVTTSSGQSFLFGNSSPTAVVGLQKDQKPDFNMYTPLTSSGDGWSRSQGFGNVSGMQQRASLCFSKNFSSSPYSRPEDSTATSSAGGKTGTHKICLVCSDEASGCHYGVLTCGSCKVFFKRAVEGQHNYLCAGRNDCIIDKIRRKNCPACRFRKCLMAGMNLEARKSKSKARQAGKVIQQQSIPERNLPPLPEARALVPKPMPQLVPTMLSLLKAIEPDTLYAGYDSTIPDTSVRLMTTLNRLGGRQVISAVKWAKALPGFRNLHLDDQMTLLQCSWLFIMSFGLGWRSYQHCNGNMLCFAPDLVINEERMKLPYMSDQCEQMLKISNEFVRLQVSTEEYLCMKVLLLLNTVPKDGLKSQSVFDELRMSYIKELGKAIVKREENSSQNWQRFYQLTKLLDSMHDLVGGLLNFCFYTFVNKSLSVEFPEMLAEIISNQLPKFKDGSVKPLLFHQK

Assays:
hGR = molecular target: T1, hGR (Homo sapiens, UniProt P04150); settings: HMLN-hGR; with 3 nM dexamethasone; % of maximal luciferase activity induced by 100 nM dexamethasone; at 10^-5M
T1 sequence (P04150 1-777): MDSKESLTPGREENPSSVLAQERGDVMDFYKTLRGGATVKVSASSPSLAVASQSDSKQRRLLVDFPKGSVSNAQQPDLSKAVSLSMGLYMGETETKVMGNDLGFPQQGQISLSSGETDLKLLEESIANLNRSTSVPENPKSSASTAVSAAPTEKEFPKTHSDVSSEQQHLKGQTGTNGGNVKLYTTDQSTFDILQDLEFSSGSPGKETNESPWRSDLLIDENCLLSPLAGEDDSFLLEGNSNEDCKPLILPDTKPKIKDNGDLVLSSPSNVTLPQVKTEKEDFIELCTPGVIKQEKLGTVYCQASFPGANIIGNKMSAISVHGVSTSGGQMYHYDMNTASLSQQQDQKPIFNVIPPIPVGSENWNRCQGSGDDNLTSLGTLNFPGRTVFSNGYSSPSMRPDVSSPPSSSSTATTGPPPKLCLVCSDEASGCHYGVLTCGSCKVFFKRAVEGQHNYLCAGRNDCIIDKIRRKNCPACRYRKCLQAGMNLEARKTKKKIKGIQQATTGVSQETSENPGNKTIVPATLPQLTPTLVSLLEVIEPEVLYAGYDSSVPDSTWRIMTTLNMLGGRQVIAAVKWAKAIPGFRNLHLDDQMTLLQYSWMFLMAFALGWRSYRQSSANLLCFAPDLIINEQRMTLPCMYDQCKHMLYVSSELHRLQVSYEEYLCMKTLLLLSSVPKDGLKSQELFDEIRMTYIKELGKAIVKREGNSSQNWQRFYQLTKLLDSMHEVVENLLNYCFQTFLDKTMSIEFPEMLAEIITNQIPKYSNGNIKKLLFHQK

zfGR = zfGR (Danio rerio, UniProt Q1XHK0); test: Antagonistic activity assessment in presence of 3 nM dexamethasone, UMLN-zfGR cells; format: cell-based, zebrafish; settings: IC50, UMLN-zfGR cells, antagonistic activity, with 3 nM dexamethasone

Row | SMILES | % min act (minimal activity) (hGR) | IC50 (zfGR)
1 | CC(=O)S[C@@H]1CC2=CC(=O)CC[C@]2(C)[C@H]2CC[C@@]3(C)[C@@H](CC[C@@]34CCC(=O)O4)[C@H]12 [spironolactone] | 11 ± 4% | 
2 | C[C@]12CCC(=O)C=C1CC[C@@H]1[C@@H]2[C@@H](O)C[C@]2(C=O)[C@@H](C(=O)CO)CC[C@@H]12 [aldosterone] |  | 14 µM
